Results: US10682371B2, “Small molecule conjugates specifically activated in tumor microenvironment for targeting and use thereof” (priority 2014, dated 2020)

What was measured:
[1] = system: Human fibrosarcoma HT-1080 tumor tissue homogenate; type: biochemical; conditions: Human fibrosarcoma HT-1080
Experimental: (§1) At 37 °C, sample compounds were added into 100 μg acidized tumor tissue homogenates (pH6.0) in a concentration of 1 mg/ml.
(§2) […], sample compounds were added into 100 μg acidized tumor tissue homogenates (pH6.0) in a concentration of 1 mg/ml.
(§3) At 37 °C, sample compounds were added into 100 μg acidized tumor tissue homogenates in a concentration of 1 mg/ml.
(§4) In the experiments, at 37 °C, compounds were added into proteases in 100 μg acidized tumor tissue homogenates in a concentration of 1 mg/ml. […] Meanwhile certain compounds produced in the screening were compared and their activation efficiency in same tissue was analyzed.
(§5) At 37° C., compounds were added into proteases in 100 μg acidized tumor tissue homogenates in a concentration of 1 mg/ml.

[2] = system: Human chronic leukemia K562 tumor tissue homogenate; type: biochemical; conditions: Human chronic leukemia K562; 37° C., 1 mg/ml
Experimental: as §1, §2, §3, §4, §5

[3] = Solubility / formulation test in solvent 1 and solvent 2; type: physicochemical
Experimental: In Table 11, AAN, AANL and AANK indicate the linkage formed by small peptides in the compounds, A is Ala, N is Asn, L is Leu and K is Lys. […] The dissolution concentration is 10 mg/ml.
B1, B2, B3 and B4 and various control compounds were dried under vacuum, sterilized via gas sterilization, and separately packing in a sterile room. Before animal test, B1, B2, B3 and B4 were dissolved by solvent 1 (injectable water) or solvent 2 (30% alcohol, 70% injectable water) and diluted by injectable water to the desired concentration in sterile room. […] Change in solubility may greatly affect the formulation scheme of a drug.
D1, D2, D3, D4 and various control compounds were dried under vacuum, sterilized via gas sterilization, and separately packing in a sterile room. […] Change in solubility may greatly affect the formulation scheme of a drug.

BALB/C mice = test: Maximum tolerated dose (MTD) / acute toxicity by single intravenous injection; conditions: for MTD (maximum tolerated dose): intravenous injection, one time
HT1080 model = test: Comparative experiments of Legutaxel, Abraxane and Paclitaxel in HT1080 model; type: in vivo; conditions: high dose comparison
Experimental: FIGS. 1A and 1B show comparative experiments performed in HT1080 model by using a high dose of Legutaxel, Capxol and Paclitaxel injections, which were used at an equal molar dose and at an equal toxic dose.
Comparative experiments for a high dose of Legutaxel, Abraxane and Paclitaxel were performed in HT1080 model, which were used at an equal molar dose and at an equal toxic dose.

[4] = single intravenous injection, 25 mg/kg, 10 BALB/C mice per group
[5] = single intravenous injection, 30 mg/kg, 10 BALB/C mice per group, 30 mg/kg
[6] = single intravenous injection, 35 mg/kg, 10 BALB/C mice per group, 35 mg/kg
[7] = single intravenous injection, 40 mg/kg, 10 BALB/C mice per group
[8] = single intravenous injection, 30 mg/kg, 10 BALB/C mice per group
[9] = single intravenous injection, 35 mg/kg, 10 BALB/C mice per group

With `COCCOCCOCCOCCOCCOCC(=O)NCCCC[C@H](NC(=O)COCCOCCOCCOCCOCCOC)C(=O)N[C@H](C)C(=O)N[C@H](C)C(=O)N[C@H](CC(N)=O)C(=O)Nc1ccc(COC(=O)OC(C(=O)OC2C[C@@]3(O)[C@@H](OC(=O)c4ccccc4)[C@H]4[C@](C)(C(=O)[C@H](OC(C)=O)C(=C2C)C3(C)C)[C@@H](O)CC2OC[C@]24OC(C)=O)[C@@H](NC(=O)c2ccccc2)c2ccccc2)cc1` (some centres unmarked) [Compound A2] the “Activation ratio (%) in homogenates from different tumor tissues” value ([1]; 1 mg/ml, 100 μg acidized homogenate pH6.0, Paclitaxel release by HPLC) was 78.4%.

In the case of `COCCOCCOCCOCCOCCOCC(=O)N[C@H](C)C(=O)N[C@H](C)C(=O)N[C@H](CC(N)=O)C(=O)Nc1ccc(COC(=O)N2[C@H]3[C@@H]2CN2C4=C(C(=O)C(N)=C(C)C4=O)[C@H](COC(N)=O)[C@]32OC)cc1` [Compound E2], the “Activation ratio (%) in homogenates from different tumor tissues” value [2] is reported as 68.4%.

For `COCCOCCOCCOCCOCCOCC(=O)N[C@H](C)C(=O)N[C@H](C)C(=O)N[C@H](CC(N)=O)C(=O)Nc1ccc(COC(=O)OC(C(=O)OC2C[C@@]3(O)[C@@H](OC(=O)c4ccccc4)[C@H]4[C@](C)(C(=O)[C@H](OC(C)=O)C(=C2C)C3(C)C)[C@@H](O)CC2OC[C@]24OC(C)=O)[C@@H](NC(=O)c2ccccc2)c2ccccc2)cc1` (some centres unmarked) [S2′], the “Activation ratio (%) in homogenates from different tumor tissues” value ([1]; 100 μg acidized homogenate pH6.0, 1 mg/ml, 37°) was 75.4%.

With Docetaxel [reference compound] the “Solubility in water, in words” value [3] was “insoluble in water”, the “MTD (maximum tolerated dose)” value (BALB/C mice; BALB/C mice) was 25 mg/kg and the “Mortality rate (%)” value (BALB/C mice; [4]) was 0%. The “Number of dead animal” value (BALB/C mice; [4]) was 0, the “Mortality rate (%)” value (BALB/C mice; [5]) was 30% and 20% and the “Number of dead animal” value (BALB/C mice; [5]) was 3 and 2. The “Mortality rate (%)” value (BALB/C mice; [6]) was 60% and 50%, the “Number of dead animal” value (BALB/C mice; [6]) was 6 and 5 and the “Mortality rate (%)” value (BALB/C mice; [7]) was 100%. The “Number of dead animal” value (BALB/C mice; [7]) was 10.

In the case of Paclitaxel [reference compound], the Death during treatment (HT1080 model) is reported as “Death occurred after the third treatment”, the “Solubility in water, in words” value [3] is reported as “insoluble in water” and the “MTD (maximum tolerated dose)” value (BALB/C mice; BALB/C mice) is reported as 6 mg/kg. For the same molecule, the “Mortality rate (%)” value (BALB/C mice; BALB/C mice, single iv, 25 mg/kg) was 0%, the “Number of dead animal” value (BALB/C mice; BALB/C mice, single iv, 25 mg/kg, 10 animals) was 0 and the “Mortality rate (%)” value (BALB/C mice; BALB/C mice, single iv, 30 mg/kg) was 10%. The “Number of dead animal” value (BALB/C mice; BALB/C mice, single iv, 30 mg/kg, 10 animals) was 1, the “Mortality rate (%)” value (BALB/C mice; BALB/C mice, single iv, 35 mg/kg) was 40% and the “Number of dead animal” value (BALB/C mice; BALB/C mice, single iv, 35 mg/kg, 10 animals) was 4. For the same molecule, the “Mortality rate (%)” value (BALB/C mice; BALB/C mice, single iv, 40 mg/kg) was 90%, the “Number of dead animal” value (BALB/C mice; BALB/C mice, single iv, 40 mg/kg, 10 animals) was 8 and the “Mortality rate (%)” value (BALB/C mice; [4]) was 10%. For the same molecule, the “Number of dead animal” value (BALB/C mice; [4]) was 0, the “Mortality rate (%)” value (BALB/C mice; [8]) was 0% and the “Number of dead animal” value (BALB/C mice; [8]) was 0. The “Mortality rate (%)” value (BALB/C mice; [9]) was 10%, the “Number of dead animal” value (BALB/C mice; [9]) was 1 and the “Mortality rate (%)” value (BALB/C mice; [7]) was 40%. The “Number of dead animal” value (BALB/C mice; [7]) was 4.

“And” between values parts separate entries of the source, which are not always exact repeats. Equal values may be shown once. Read-outs that look alike come from different tables or passages of the source.
